From patent publication US11612627B2, “Method for preventing or treating thrombosis” (ANDONG NATIONAL UNIVERSITY INDUSTRY-ACADEMIC COOPERATION …, priority 2020, dated 2023) come the findings set out here.

The experiment deals with human thrombin (Homo sapiens, UniProt P00734). As to the kind of experiment: Thrombin time (plasma clotting). The conditions noted are these: clot time sample/clot time DMSO, 3-carene section Table 3.

As to `O=C(O)c1ccc(O)cc1` [4-Hydroxybenzoic acid, 4-hydroxybenzoic acid], under “0.5 mg/ml”, the “Blood coagulation inhibition activity: Thrombin Time” value amounted to 1.34 ± 0.04.
For the compound `CC1=CCC2C(C1)C2(C)C` (centres unmarked) [Extract 3-Carene, 3-carene], the “Blood coagulation inhibition activity: Thrombin Time” value came to 1.56 ± 0.01 (0.5 mg/ml); 2.14 ± 0.13 (0.75 mg/ml); 2.55 ± 0.00 (1.0 mg/ml); 2.55 (1.0 mg/ml, listed as 3-carene).
